Structures can show the parent of a compound that is named as a salt. Where two headings read alike, the source gives them in different places.
What was measured:
Assay in all cases: cells
Conditions in all cases: Homo sapiens
K562 cells = tested on: K562 cells
MOLM-13 cells = tested on: MOLM-13 cells
MV-4-11 cells = tested on: MV-4-11 cells
[1] = K562, 72 h, read-out: GI50, cell growth inhibitory activity, K562, day 3
[2] = K562, 168 h, read-out: GI50, cell growth inhibitory activity, K562, day 7
[3] = MOLM-13, 72 h, read-out: GI50, cell growth inhibitory activity, MOLM-13, day 3, MOLM-13 cells, cultured 3 days, assigned by order and values
[4] = MOLM-13, 168 h, read-out: GI50, cell growth inhibitory activity, MOLM-13, day 7, MOLM-13 cells, cultured 7 days, assigned by order and values
[5] = MV4-11, 72 h, read-out: GI50, cell growth inhibitory activity, MV-4-11, day 3, MV-4-11 cells, cultured 3 days, assigned by order and values
[6] = MV4-11, 168 h, read-out: GI50, cell growth inhibitory activity, MV-4-11, day 7, MV-4-11 cells, cultured 7 days, assigned by order and values
[7] = K562, 72 h, read-out: GI50 (μM) Day3 K562
[8] = K562, 168 h, read-out: GI50 (μM) Day7 K562
[9] = MOLM-13, 72 h, read-out: GI50 (μM) Day3 MOLM-13, MOLM-13, Day3
[10] = MOLM-13, 168 h, read-out: GI50 (μM) Day7 MOLM-13, MOLM-13, Day7
[11] = MV4-11, 72 h, read-out: GI50 (μM) Day3 MV4;11, MV4;11, Day3
[12] = MV4-11, 168 h, read-out: GI50 (μM) Day7 MV4;11, MV4;11, Day7

| SMILES | GI50 (K562 cells; [1]) | GI50 (K562 cells; [2]) | GI50 (MOLM-13 cells; [3]) | GI50 (MOLM-13 cells; [4]) | GI50 (MV-4-11 cells; [5]) | GI50 (MV-4-11 cells; [6]) | GI50 (K562 cells; [7]) | GI50 (K562 cells; [8]) | GI50 (MOLM-13 cells; [9]) | GI50 (MOLM-13 cells; [10]) | GI50 (MV-4-11 cells; [11]) | GI50 (MV-4-11 cells; [12]) |
| --- | --- | --- | --- | --- | --- | --- | --- | --- | --- | --- | --- | --- |
| COc1nc(N(C)[C@H]2C[C@@H](NCc3ccc(-c4cnc(F)c(OC)c4)cc3)C[C@H]2O)c2cc(CC(F)(F)F)sc2n1 [Example 91, (1R,2S,4R)-4-({[4-(6-fluoro-5-methoxypyridin-3yl)phenyl]methyl}amino)-2{[2-methoxy6-(2,2,2-trifluoroethyl)thieno[2,3-d]pyrimidin-4-yl](methyl)amino}cyclopentan-1-ol hydrochloride] | 0.769 µM | 0.542 µM | 0.206 µM | 0.0526 µM | < 0.0195 µM | < 0.0195 µM | – | – | – | – | – | – |
| COc1cncc(Nc2ccc(CN[C@H]3CC[C@@H](N(C)c4ncnc5sc(CC(F)(F)F)cc45)C3)cc2)c1 [Example 8, (1R,3S)—N^3-({4-[(5-methoxypyridin-3-yl)amino]phenyl}methyl)-N^1-methyl-N^1-[6-(2,2,2-trifluoroethyl)thieno[2,3-d]pyrimidin-4-yl]cyclopentane-1,3-diamine Hydrochloride] | – | – | – | – | – | – | 2.73 µM | 1.44 µM | 0.87 µM | 0.592 µM | 0.408 µM | 0.201 µM |
| CCN(c1ncnc2sc(CC(F)(F)F)cc12)[C@@H]1CC[C@H](NCc2ccc(-c3cccnc3)cc2)C1 [Example 43, (1R,3S)-N^1-ethyl-N^3-{[4-(pyridin-3-yl)phenyl]methyl}-N^1-[6-(2,2,2 trifluoroethyl)thieno[2,3-d]pyrimidin-4-yl]cyclopentane-1,3-diamine hydrochloride] | – | – | – | – | – | – | 3.02 µM | 1.72 µM | 2.41 µM | 1.74 µM | 1.18 µM | 0.877 µM |
| OCCN(c1ncnc2sc(CC(F)(F)F)cc12)[C@@H]1CC[C@H](NCc2ccc(-c3cccnc3)cc2)C1 [Example 42, 2-{[(1R,3S)-3-({[4-(pyridin-3-yl)phenyl]methyl}amino)cyclopentyl][6-(2,2,2-trifluoroethyl)thieno[2,3-d]pyrimidin-4-yl[amino}ethan-1-ol hydrochloride] | – | – | – | – | – | – | 5.09 µM | 2.87 µM | 3.11 µM | 1.96 µM | 1.43 µM | 1.14 µM |
| COc1cc(-c2ccc(CN[C@H]3C[C@@H](O)[C@@H](N(C)c4ncncc4Oc4ccc(F)cc4-c4ccnn4C(C)C)C3)cc2)nnc1OC [Example 102, (1R,2S,4R)-4-({[4-(5,6-dimethoxypyridazin-3-yl)phenyl]methyl}amino)-2-[(5-{4-fluoro-2-[1-(propan-2-yl)-1H-pyrazol-5-yl]phenoxy}pyrimidin-4-yl)(methyl)amino]cyclopentan-1-ol hydrochloride] | > 10 µM | > 10 µM | 0.258 µM | 0.0742 µM | 0.0393 µM | 0.0271 µM | – | – | – | – | – | – |
| COc1cc(-c2ccc(CN[C@H]3C[C@@H](O)[C@@H](N(C)c4ncnc5sc(CC(F)(F)F)cc45)C3)cc2)cnc1Cl [Example 65, (1R,2S,4R)-4({[4-(6-chloro-5-methoxypyridin-3-yl)phenyl]methyl}amino)-2{methyl[6-(2,2,2-trifluoroethyl)thieno[2,3-d]pyrimidin-4-yl]amino}cyclopentan-1-ol hydrochloride] | 2.85 µM | 2.64 µM | 1.46 µM | 0.143 µM | 0.0882 µM | 0.0557 µM | – | – | – | – | – | – |
| COCCOc1nnc(-c2ccc(CN[C@H]3C[C@@H](O)[C@@H](N(C)c4nc(OC)nc5sc(CC(F)(F)F)cc45)C3)cc2)cc1OC [Example 109, (1R,2S,4R)-4-[({4-[5-methoxy-6-(2-methoxyethoxy)pyridazin-3-yl]phenyl}methyl)amino]-2-{[2-methoxy-6-(2,2,2-trifluoroethyl)thieno[2,3-d]pyrimidin-4-yl](methyl)amino}cyclopentan-1-ol hydrochloride] | – | > 5 µM | – | 0.0312 µM | – | 0.0133 µM | – | – | – | – | – | – |
| COc1cc(-c2ccc(CN[C@H]3C[C@@H](O)[C@@H](N(C)c4ncncc4Oc4ccc(F)cc4-c4cncnc4C(C)C)C3)cc2)nnc1OC [Example 100, (1R,2S,4R)-4-({[4-(5,6-dimethoxypyridazin-3-yl)phenyl]methyl}amino)-2-[(5-{4-fluoro-2-[4-(propan-2-yl)pyrimidin-5-yl]phenoxy}pyrimidin-4-yl)(methyl)amino]cyclopentan-1-ol hydrochloride] | > 10 µM | 5.94 µM | 0.137 µM | 0.0598 µM | 0.0236 µM | < 0.0195 µM | – | – | – | – | – | – |
| C=CC(=O)N(C)c1nnc(-c2ccc(CN[C@H]3C[C@@H](O)[C@@H](N(C)c4nc(OC)nc5sc(CC(F)(F)F)cc45)C3)cc2)cc1OC [Example 113, N-{6-[4-({[(1R,3R,4S)-3-hydroxy-4-{[2-methoxy-6(2,2,2-trifluoroethyl)thieno[2,3-d]pyrimidin-4-yl](methyl)amino}cyclopentyl]amino}methyl)phenyl]-4-methoxypyridazin-3-yl}-N-methylprop-2-enamide hydrochloride] | – | 1.66 µM | – | 1.15 µM | – | 0.0997 µM | – | – | – | – | – | – |
| CN(c1ncnc2sc(CC(F)(F)F)cc12)[C@H]1C[C@@H](NCc2ccc(-c3cncc4ccccc34)cc2)C[C@H]1O [Example 83, (1R,2S,4R)-4-({[4-(isoquinolin-4-yl)phenyl]methyl}amino)-2-{methyl[6-(2,2,2-trifluoroethyl)thieno[2,3-d]pyrimidin-4-yl]amino}cyclopentan-1-ol hydrochloride] | 2.38 µM | 1.52 µM | 1.45 µM | 0.646 µM | 0.345 µM | 0.179 µM | – | – | – | – | – | – |
| CN(c1nc(N)nc2sc(CC(F)(F)F)cc12)[C@H]1C[C@@H](NCc2ccc(-n3ccnc3)cc2)C[C@H]1O [Example 21, (1R,2S,4R)-2-{[2-amino-6-(2,2,2-trifluoroethyl)thieno[2,3-d]pyrimidin-4-yl](methyl)amino}-4-({[4-(1H-imidazol-1-yl)phenyl]methyl}amino)cyclopentan-1-ol Hydrochloride] | – | – | – | – | – | – | 5.75 µM | 9.6 µM | 4.5 µM | 0.509 µM | 0.304 µM | 0.173 µM |
| COc1cc(-c2ccc(CN[C@H]3C[C@@H](O)[C@@H](N(C)c4ncnc5sc(CC(F)(F)F)cc45)C3)cc2)cnc1C(F)(F)F [Example 88, (1R,2S,4R)-4-[({4-[5-methoxy-6-(trifluoromethyl)pyridin-3-yl]phenyl}methyl)amino]-2-{methyl[6-(2,2,2-trifluoroethyl)thieno[2,3-d]pyrimidin-4-yl]amino}cyclopentan-1-ol hydrochloride] | 2.01 µM | 1.76 µM | 1.48 µM | 1.01 µM | 0.446 µM | 0.327 µM | – | – | – | – | – | – |
| COc1cncc(-c2ccc(CN[C@@H]3C[C@H](Nc4ncnc5sc(CC(F)(F)F)cc45)CC(F)(F)C3)cc2)c1 [Example 52, (1R,3S)-5,5-difluoro-N^1-{[4-(5-methoxypyridin-3-yl)phenyl]methyl}-N^3-[6-(2,2,2-trifluoroethyl)thieno[2,3-d]pyrimidin-4-yl]cyclohexane-l,3-diamine hydrochloride] | – | – | – | – | – | – | 5.93 µM | – | 3.37 µM | – | 2.39 µM | – |
